PubChem BioAssay (NCI)
Some of these compounds have results that are not shown, active ones among them.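 All cell lines were grown in 96-well plates and treated with compound for 48 hours. The concentration for 50% growth inhibition is given as GI50. TGI denotes the concentration required for complete inhibition of growth.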

How the values were obtained:
Test in all cases: growth of human tumour cells (NCI), 48 h
OVCAR-5 ovarian = system: OVCAR-5 ovarian
M14 melanoma = system: M14 melanoma
NCI/ADR-RES ovarian = system: NCI/ADR-RES ovarian
SR leukemia = system: SR leukemia
CAKI-1 renal = system: CAKI-1 renal
RXF 393 renal = system: RXF 393 renal
BT-549 breast = system: BT-549 breast
SK-MEL-28 melanoma = system: SK-MEL-28 melanoma
TK-10 renal = system: TK-10 renal
PC-3 prostate = system: PC-3 prostate
SK-MEL-5 melanoma = system: SK-MEL-5 melanoma
SNB-75 CNS = system: SNB-75 CNS
NCI-H226 lung = system: NCI-H226 lung
K-562 leukemia = system: K-562 leukemia
HCC-2998 colon = system: HCC-2998 colon
RPMI-8226 leukemia = system: RPMI-8226 leukemia
EKVX NSCLC = system: EKVX NSCLC
SF-539 CNS = system: SF-539 CNS
NCI-H522 lung = system: NCI-H522 lung
A549 NSCLC = system: A549 NSCLC
IGROV1 ovarian = system: IGROV1 ovarian
SF-295 CNS = system: SF-295 CNS
786-0 renal = system: 786-0 renal
U251 CNS = system: U251 CNS
MOLT-4 leukemia = system: MOLT-4 leukemia
SN12C renal = system: SN12C renal
COLO 205 colon = system: COLO 205 colon
MALME-3M melanoma = system: MALME-3M melanoma
LOX IMVI melanoma = system: LOX IMVI melanoma
MDA-N = system: MDA-N
OVCAR-3 ovarian = system: OVCAR-3 ovarian
T-47D breast = system: T-47D breast
SK-OV-3 ovarian = system: SK-OV-3 ovarian
DU-145 prostate = system: DU-145 prostate
UACC-257 melanoma = system: UACC-257 melanoma
SNB-19 CNS = system: SNB-19 CNS
CCRF-CEM leukemia = system: CCRF-CEM leukemia
HOP-62 NSCLC = system: HOP-62 NSCLC
HT29 colon = system: HT29 colon
HCT-15 colon = system: HCT-15 colon
KM12 colon = system: KM12 colon
MCF7 breast = system: MCF7 breast
MDA-MB-435 = system: MDA-MB-435
SF-268 CNS = system: SF-268 CNS
OVCAR-8 ovarian = system: OVCAR-8 ovarian
UACC-62 melanoma = system: UACC-62 melanoma
MDA-MB-231 breast = system: MDA-MB-231 breast
NCI-H23 lung = system: NCI-H23 lung
UO-31 renal = system: UO-31 renal
HCT-116 colon = system: HCT-116 colon
SW-620 colon = system: SW-620 colon
HL-60(TB) leukemia = system: HL-60(TB) leukemia
ACHN renal = system: ACHN renal

`C=C(C)C#CC(O)(C(=O)OC1C2CCN(CC2)C1C)C1CCCCC1` (stereo unspecified) showed a GI50 (OVCAR-5 ovarian) greater than 100 µM, a TGI (OVCAR-5 ovarian) greater than 100 µM and a GI50 (M14 melanoma) of 32.4 µM. It also gave a TGI (M14 melanoma) greater than 100 µM, a GI50 (NCI/ADR-RES ovarian) of 21.6 µM and a TGI (NCI/ADR-RES ovarian) of 57.2 µM. The GI50 (SR leukemia) was 63.3 µM, the TGI (SR leukemia) was greater than 100 µM and the GI50 (CAKI-1 renal) was greater than 100 µM. It also gave a TGI (CAKI-1 renal) greater than 100 µM, a GI50 (RXF 393 renal) of 99.7 µM and a TGI (RXF 393 renal) greater than 100 µM. It also gave a GI50 (BT-549 breast) of 7.6 µM, a TGI (BT-549 breast) greater than 100 µM and a GI50 (SK-MEL-28 melanoma) greater than 100 µM. The TGI (SK-MEL-28 melanoma) was greater than 100 µM, the GI50 (TK-10 renal) was greater than 100 µM and the TGI (TK-10 renal) was greater than 100 µM. For the same compound, the GI50 (PC-3 prostate) was greater than 100 µM, the TGI (PC-3 prostate) was greater than 100 µM and the GI50 (SK-MEL-5 melanoma) was 24.2 µM. The TGI (SK-MEL-5 melanoma) was 66.6 µM, the GI50 (SNB-75 CNS) was 62.6 µM and the TGI (SNB-75 CNS) was greater than 100 µM. The GI50 (NCI-H226 lung) was greater than 100 µM, the TGI (NCI-H226 lung) was greater than 100 µM and the GI50 (K-562 leukemia) was 33.7 µM. For the same compound, the TGI (K-562 leukemia) was greater than 100 µM, the GI50 (HCC-2998 colon) was 25.4 µM and the TGI (HCC-2998 colon) was 65.9 µM. The GI50 (RPMI-8226 leukemia) was 64.6 µM, the TGI (RPMI-8226 leukemia) was greater than 100 µM and the GI50 (EKVX NSCLC) was greater than 100 µM. For the same compound, the TGI (EKVX NSCLC) was greater than 100 µM, the GI50 (SF-539 CNS) was 59.9 µM and the TGI (SF-539 CNS) was greater than 100 µM. It also gave a GI50 (NCI-H522 lung) greater than 100 µM, a TGI (NCI-H522 lung) greater than 100 µM and a GI50 (A549 NSCLC) greater than 100 µM. The TGI (A549 NSCLC) was greater than 100 µM, the GI50 (IGROV1 ovarian) was 38.5 µM and the TGI (IGROV1 ovarian) was greater than 100 µM. The GI50 (SF-295 CNS) was greater than 100 µM, the TGI (SF-295 CNS) was greater than 100 µM and the GI50 (786-0 renal) was greater than 100 µM. The TGI (786-0 renal) was greater than 100 µM, the GI50 (U251 CNS) was 80.3 µM and the TGI (U251 CNS) was greater than 100 µM. For the same compound, the GI50 (MOLT-4 leukemia) was 52.6 µM, the TGI (MOLT-4 leukemia) was greater than 100 µM and the GI50 (SN12C renal) was greater than 100 µM. For the same compound, the TGI (SN12C renal) was greater than 100 µM, the GI50 (COLO 205 colon) was greater than 100 µM and the TGI (COLO 205 colon) was greater than 100 µM. It also gave a GI50 (MALME-3M melanoma) greater than 100 µM, a TGI (MALME-3M melanoma) greater than 100 µM and a GI50 (LOX IMVI melanoma) of 77.9 µM. The TGI (LOX IMVI melanoma) was greater than 100 µM, the GI50 (MDA-N) was greater than 100 µM and the TGI (MDA-N) was greater than 100 µM. The GI50 (OVCAR-3 ovarian) was greater than 100 µM, the TGI (OVCAR-3 ovarian) was greater than 100 µM and the GI50 (T-47D breast) was greater than 100 µM. The TGI (T-47D breast) was greater than 100 µM, the GI50 (SK-OV-3 ovarian) was greater than 100 µM and the TGI (SK-OV-3 ovarian) was greater than 100 µM. For the same compound, the GI50 (DU-145 prostate) was greater than 100 µM, the TGI (DU-145 prostate) was greater than 100 µM and the GI50 (UACC-257 melanoma) was 26.9 µM. For the same compound, the TGI (UACC-257 melanoma) was 68.2 µM, the GI50 (SNB-19 CNS) was greater than 100 µM and the TGI (SNB-19 CNS) was greater than 100 µM. It also gave a GI50 (CCRF-CEM leukemia) of 47.2 µM, a TGI (CCRF-CEM leukemia) greater than 100 µM and a GI50 (HOP-62 NSCLC) greater than 100 µM. The TGI (HOP-62 NSCLC) was greater than 100 µM, the GI50 (HT29 colon) was 29 µM and the TGI (HT29 colon) was greater than 100 µM. For the same compound, the GI50 (HCT-15 colon) was 95.7 µM, the TGI (HCT-15 colon) was greater than 100 µM and the GI50 (KM12 colon) was greater than 100 µM. For the same compound, the TGI (KM12 colon) was greater than 100 µM, the GI50 (MCF7 breast) was greater than 100 µM and the TGI (MCF7 breast) was greater than 100 µM. The GI50 (MDA-MB-435) was greater than 100 µM, the TGI (MDA-MB-435) was greater than 100 µM and the GI50 (SF-268 CNS) was greater than 100 µM. The TGI (SF-268 CNS) was greater than 100 µM, the GI50 (OVCAR-8 ovarian) was greater than 100 µM and the TGI (OVCAR-8 ovarian) was greater than 100 µM. The GI50 (UACC-62 melanoma) was greater than 100 µM, the TGI (UACC-62 melanoma) was greater than 100 µM and the GI50 (MDA-MB-231 breast) was greater than 100 µM. It also gave a TGI (MDA-MB-231 breast) greater than 100 µM, a GI50 (NCI-H23 lung) greater than 100 µM and a TGI (NCI-H23 lung) greater than 100 µM. It also gave a GI50 (UO-31 renal) of 14.2 µM, a TGI (UO-31 renal) of 52.8 µM and a GI50 (HCT-116 colon) greater than 100 µM. It also gave a TGI (HCT-116 colon) greater than 100 µM, a GI50 (SW-620 colon) greater than 100 µM and a TGI (SW-620 colon) greater than 100 µM. The GI50 (HL-60(TB) leukemia) was 54 µM, the TGI (HL-60(TB) leukemia) was greater than 100 µM and the GI50 (ACHN renal) was greater than 100 µM. The TGI (ACHN renal) was greater than 100 µM.
